For four molecules, IC50 and Ki results are on record in US20140315800A1 (published 2014).

Chains of the proteins cited; added tags and fusions are not shown. Lines headed by an entry give the natural chain unless they say otherwise; changes in a name come on top.
UniProt P32745: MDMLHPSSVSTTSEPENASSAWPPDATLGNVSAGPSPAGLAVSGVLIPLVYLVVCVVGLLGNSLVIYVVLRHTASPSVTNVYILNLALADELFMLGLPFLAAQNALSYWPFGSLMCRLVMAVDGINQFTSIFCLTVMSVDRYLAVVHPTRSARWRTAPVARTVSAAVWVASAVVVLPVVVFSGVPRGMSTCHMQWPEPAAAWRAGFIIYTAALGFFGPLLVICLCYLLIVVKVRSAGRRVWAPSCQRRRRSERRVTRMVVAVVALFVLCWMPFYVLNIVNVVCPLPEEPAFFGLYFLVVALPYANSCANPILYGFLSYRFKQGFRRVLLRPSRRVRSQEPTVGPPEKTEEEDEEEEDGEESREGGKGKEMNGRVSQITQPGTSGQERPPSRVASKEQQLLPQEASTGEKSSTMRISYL
UniProt P30872: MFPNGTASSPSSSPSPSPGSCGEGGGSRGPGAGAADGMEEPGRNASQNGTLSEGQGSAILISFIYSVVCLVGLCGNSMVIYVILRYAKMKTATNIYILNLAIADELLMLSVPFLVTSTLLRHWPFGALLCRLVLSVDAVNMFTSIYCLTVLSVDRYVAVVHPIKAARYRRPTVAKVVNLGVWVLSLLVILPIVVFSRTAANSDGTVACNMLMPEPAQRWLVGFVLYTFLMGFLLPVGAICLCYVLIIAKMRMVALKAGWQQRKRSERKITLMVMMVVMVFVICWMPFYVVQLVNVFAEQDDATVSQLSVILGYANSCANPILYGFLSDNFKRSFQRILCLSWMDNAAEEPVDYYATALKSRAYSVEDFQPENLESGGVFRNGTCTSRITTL
UniProt P35346: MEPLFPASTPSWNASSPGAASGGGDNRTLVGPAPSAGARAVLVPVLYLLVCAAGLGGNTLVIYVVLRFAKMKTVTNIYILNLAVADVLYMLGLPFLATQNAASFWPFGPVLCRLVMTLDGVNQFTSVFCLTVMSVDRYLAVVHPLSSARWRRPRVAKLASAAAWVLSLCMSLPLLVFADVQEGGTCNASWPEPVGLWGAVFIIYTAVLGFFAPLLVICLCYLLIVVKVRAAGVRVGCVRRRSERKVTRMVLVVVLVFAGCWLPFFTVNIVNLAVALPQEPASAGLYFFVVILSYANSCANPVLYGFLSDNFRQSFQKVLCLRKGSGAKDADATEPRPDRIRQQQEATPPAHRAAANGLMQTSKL

What all share (experiment): radioligand competition, membranes
The target in one assay is T1, SSTR3 (Human, UniProt P32745 1-418).
T1 construct: whole, on cells; receptor expression cells in the cAMP assay; also called somatostatin receptor 3

For another assay, the target named is T2, SSTR1 (Human, UniProt P30872 1-391).
T2 construct: whole, on cells; receptor expression cells in the cAMP assay; also called somatostatin receptor 1

In another assay the target is T3, SSTR5 (Human, UniProt P35346 1-364).
T3 construct: whole, on cells; receptor expression cells in the cAMP assay; also called somatostatin receptor 5

B1: S1-2C(disialo(Bn))-SRIF28 (peptide)
peptide: CCANSNPAMAPRERKAGCKNFFWKTFTSC
modifications: Ser 1 replaced by two consecutive Cys each with a disialo(Bn) sugar chain; disulfide Cys17-Cys28 (SRIF28 numbering)
In turn, B1 registered an IC50 with SSTR3 of 2.59 nM.
SANSNPAMCPRERKAGCKNFFWKTFTSC (disialo sugar chain on Cys 9; D-Trp at 22; disulfide Cys17-Cys28) [A9C(disialo)-D-Trp22-SRIF28] gave an inhibition constant Ki with SSTR1 of 5.73 nM.
Regarding SANSNPAMAPRERKAGCKNFFWKTFTSC (disialo sugar chain on Asn 5; disulfide Cys17-Cys28) [N5N(disialo)-SRIF28], the half-maximal inhibitory concentration (IC50) with SSTR1 was determined as 3.02 nM.

B2: 30C(disialo)-SRIF28 (peptide)
peptide: SANSNPAMAPRERKAGCKNFFWKTFTSCTC
modifications: disialo sugar chain on Cys at position 30 (-W-Cys added after Cys28); disulfide Cys17-Cys28
In the assay with SSTR5, B2 yielded an IC50 of 1.86 nM.
